One substance from US20200179487A1, “METHODS OF DIAGNOSIS AND TREATMENT OF PRE-ECLAMPSIA” (AGENCY FOR SCIENCE, TECHNOLOGY AND RESEARCH, priority 2016, published 2020) can be followed below.

In this test the target is T1, APJ (APLNR) (Homo sapiens, UniProt P35414).
T1 sequence (P35414 1-380): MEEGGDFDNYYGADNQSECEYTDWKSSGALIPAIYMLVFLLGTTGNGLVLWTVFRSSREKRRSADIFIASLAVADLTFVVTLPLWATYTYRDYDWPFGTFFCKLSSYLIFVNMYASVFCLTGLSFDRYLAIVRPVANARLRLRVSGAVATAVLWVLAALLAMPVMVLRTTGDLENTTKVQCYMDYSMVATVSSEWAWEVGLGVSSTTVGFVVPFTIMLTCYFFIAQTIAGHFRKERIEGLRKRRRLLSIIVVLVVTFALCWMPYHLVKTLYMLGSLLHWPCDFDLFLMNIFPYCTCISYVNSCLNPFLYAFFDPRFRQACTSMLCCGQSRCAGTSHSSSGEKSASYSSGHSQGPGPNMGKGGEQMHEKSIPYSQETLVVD
Kind of test: APJ activation measured by beta-Arrestin recruitment. It is filed as cell-based. (In general: Arrestin recruitment assays detect the binding of arrestin to an activated receptor.)

With APELIN, the “synergy of ELA and APELIN with respect to APJ activation” value (ELA and APELIN combined) is given as “no appreciable synergy”. The “potency of APJ (APLNR) activation” value (beta-Arrestin recruitment, ELA compared with APELIN) is recorded as “same potency”.
